Results published in ChEMBL document CHEMBL4270596, “Discovery of a potent non-oxime reactivator of nerve agent inhibited human acetylcholinesterase” (2018).

How the values were obtained:
[1] = molecular target: T1, Acetylcholinesterase (Homo sapiens, UniProt P22303); assay: Inhibition of AChE in human erythrocytes using acetylthiocholine as substrate measured for 1 min
[2] = molecular target: T1, Acetylcholinesterase; assay: Competitive inhibition of AChE in human erythrocytes using varying levels of acetylthiocholine as substrate measured for 1 min by Lineweaver-burk plot analysis
[3] = molecular target: T1, Acetylcholinesterase; assay: Non-competitive inhibition of AChE in human erythrocytes using varying levels of acetylthiocholine as substrate measured for 1 min by Lineweaver-burk plot analysis
[4] = molecular target: T1, Acetylcholinesterase; assay: Inhibition of recombinant human AChE using acetylthiocholine as substrate by DTNB reagent based assay
[5] = molecular target: T1, Acetylcholinesterase; assay: Competitive inhibition of recombinant human AChE using varying levels of acetylthiocholine as substrate
[6] = molecular target: T1, Acetylcholinesterase; assay: Non-competitive inhibition of recombinant human AChE using varying levels of acetylthiocholine as substrate
[7] = molecular target: T1, Acetylcholinesterase; assay: Inhibition of AChE in human erythrocyte membranes at 1000 uM using acetylthiocholine as substrate measured after 2 to 60 mins by Ellman's method; details: erythrocytes
[8] = molecular target: T1, Acetylcholinesterase; assay: Inhibition of AChE in human erythrocyte membranes at <= 100 uM using acetylthiocholine as substrate measured after 2 to 60 mins by Ellman's method; details: erythrocytes

In the case of `Nc1ccc(O)c(CN2CCCC2)c1`, the IC50 [1] is reported as 6.3 µM, the Ki [2] is reported as 7.8 µM and the Ki [3] is reported as 3.3 µM.

`CCN(CC)Cc1cc(N)ccc1O` gave an IC50 [1] of 48.3 µM, an IC50 [4] of 17.8 µM and a Ki [5] of 6.3 µM. For the same compound, the Ki [6] was 37.4 µM, the Ki [2] was 16 µM and the Ki [3] was 37.7 µM.

`CCN(CC)Cc1cc(N)ccc1O.Cl.Cl` was tested, and the “inhibition (INH)” value [7] was “Active” and the “inhibition (INH)” value [8] was “Not Active”.

With `Cl.Cl.Nc1ccc(O)c(CN2CCCC2)c1` the “inhibition (INH)” value [7] was “Active” and the “inhibition (INH)” value [8] was “Not Active”.
